What was measured:
[1] = target: β2-AR (Homo sapiens (Human), UniProt P07550); details: read-out: Ki β2
[2] = system: 1321N1 cells; assay: Inhibition of mitogenesis, [3H]-thymidine incorporation in 1321N1 cells; type: cell-based, human; details: read-out: Mitogenesis Inhibition IC50, mean ± SD, n=4

| Structure (SMILES) | Ki [1] | IC50 [2] |
| --- | --- | --- |
| O=C(O)/C=C/C(=O)O.Oc1cc(O)cc([C@@H](O)CNCCc2ccccc2)c1 [(R)-7, (R)-(−)-5-(1-Hydroxy-2-phenethylaminoethyl)-1,3-benzenediol fumarate] | 10.5 ± 1.46 µM | – |
| CC(C)NC[C@H](O)c1ccc(O)c(O)c1 [(R)-isoproterenol, reference compound] | – | 0.05 nM |
| O=C(O)/C=C/C(=O)O.Oc1cc(O)cc([C@H](O)CNCCc2ccccc2)c1 [(S)-7, (S)-(−)-5-(1-hydroxy-2-phenethylaminoethyl)-1,3-benzenediol fumarate] | 20.6 ± 3.72 µM | – |
